The record followed here is PubChem BioAssay AID602429 (Sanford-Burnham Center for Chemical Genomics, 2012).

Protein sequences, listed by entry. Tags and fused reporters are not part of them.
UniProt P63165, whole entry: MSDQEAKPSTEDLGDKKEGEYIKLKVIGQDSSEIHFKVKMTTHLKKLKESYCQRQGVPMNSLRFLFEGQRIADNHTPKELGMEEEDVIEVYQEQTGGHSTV

This is a selection; strong and weak results do not stand in their true shares. Some salts or complexes appear as unconnected parts, following the source record. The source made the active and inactive calls. Cut-off read from the data, not from the text of the source: active = inhibition above about 37%; inactive = the rest.

In the assay the target is Small ubiquitin-related modifier 1 (Homo sapiens) (UniProt P63165). Nature of the assay: SUMO1 binding to interaction partners, disruption – biochemical, uHTS, primary screen (AID 602429). Conditions: SUMO1 binding to a labelled peptide, TR-FRET, 1 h; at 20 µM; active compounds read high. A general note: TR-FRET usually uses a lanthanide donor and a delayed reading to cut background.
As a reminder, the inhibition is the relative decrease from the control value, in per cent. For the compound `O=C1C(O)=C([N+](=O)[O-])C(=O)C(O)=C1[N+](=O)[O-]`, the inhibition is inactive: 12.4%.

Turning to `Cc1cc(C)cc(OP(C)(=O)Nc2cccc(C(F)(F)F)c2)c1` (centres undefined), the inhibition is inactive: 1.37%.

For the compound `COc1ccccc1OP(C)(=O)Nc1ccc(C)c(C)c1` (centres undefined), the inhibition is inactive: 3.64%.

On to `COc1ccc(OP(C)(=O)Nc2ccccc2Br)cc1` (centres undefined), for which the inhibition was inactive: -2.63%.

`CP(=O)(Nc1ccc(Cl)cc1Cl)Oc1ccccc1` (centres undefined): the inhibition was inactive: 2.2%.

In the case of `CCCCCCCCCCCCCCCC1C[N+](C)(C)CCOP(C)(=O)O1` (centres undefined), the inhibition is inactive: -185%.

On to `CP(=O)(OCCOc1ccccc1)OCCOc1ccccc1`, for which the inhibition was inactive: -3.23%.

For the compound `COc1ccccc1OP(C)(=O)Nc1ccc(Br)cc1` (centres undefined), the inhibition is inactive: -1.18%.

`COc1ccc(OP(C)(=O)Nc2ccccn2)cc1` (centres undefined): the inhibition is inactive: -2.89%.

For `CN(C)CCOC(=O)C(O)(c1ccccc1)C1CCCC1` (centres undefined), the inhibition is inactive: 6.24%.

With `Cc1c(NP(C)(=O)Oc2ccc(C(C)C)cc2)c(=O)n(-c2ccccc2)n1C` (centres undefined), the inhibition is inactive: 1.33%.

`O=[N+]([O-])c1cc([N+](=O)[O-])c(Nc2ccccn2)c([N+](=O)[O-])c1`: the inhibition is inactive: -22.4%.

As for `CP(=O)(Nc1ccccn1)Oc1ccccc1` (centres undefined), the inhibition was inactive: -0.145%.

Consider `COc1ccccc1OP(C)(=O)Nc1ccc(C)cc1C` (centres undefined), for which the inhibition is inactive: 3.08%.

Regarding `CCc1ccc(OP(C)(=O)O)cc1`, the inhibition is inactive: -5.75%.

With `CCN(CC)CC(O)COC(=O)C(O)(c1ccccc1)C1CCCCC1` (centres undefined), the inhibition is inactive: -1.11%.

With `COc1ccc(OP(C)(=O)Nc2ccc(Br)cc2)cc1` (centres undefined), the inhibition was inactive: 1.18%.

`COc1ccccc1OP(C)(=O)Nc1c(C)n(C)n(-c2ccccc2)c1=O` (centres undefined): the inhibition was inactive: 1.57%.

Turning to `O=C(OCCCN1CCCC1)C(O)(c1ccccc1)C1CCCCC1` (centres undefined), the inhibition was inactive: 1.42%.

On to `CP(=O)(Oc1ccccc1)N1CCOC1=O` (centres undefined), for which the inhibition is inactive: 0.188%.

As for `CCc1ccc(OP(C)(=O)Nc2cccnc2)cc1` (centres undefined), the inhibition was inactive: 1.96%.

Regarding `COc1ccccc1OP(C)(=O)Nc1ccccc1Br` (centres undefined), the inhibition is inactive: -2.25%.

Take `CC(C)(C)c1ccc(OP(C)(=O)O)cc1`: the inhibition is inactive: -0.578%.

For the compound `CP(=O)(Nc1ccc(Cl)cc1)Oc1ccc(F)cc1` (centres undefined), the inhibition was inactive: 1.04%.

As to `CN(C)C(=O)c1c([N+](=O)[O-])cc([N+](=O)[O-])cc1[N+](=O)[O-]`, the inhibition was inactive: -23.7%.

For the compound `CCOC(=O)c1ccc(NP(C)(=O)Oc2ccc(Cl)cc2)cc1` (centres undefined), the inhibition is inactive: 0.246%.

As for `CP(=O)(OC12CC3CC(CC(C3)C1)C2)OC12CC3CC(CC(C3)C1)C2`, the inhibition was inactive: 0.951%.

For the compound `COc1ccc(OP(C)(=O)Nc2cccc(Br)c2)cc1` (centres undefined), the inhibition was inactive: -4.91%.

In the case of `CN(C)CCOC(=O)C(O)(c1ccccc1)C1CCCCC1` (centres undefined), the inhibition is inactive: 1.53%.

Turning to `COc1ccc(NP(C)(=O)Oc2ccccc2OC)cc1` (centres undefined), the inhibition was inactive: 3.21%.

With `O=[N+]([O-])c1ccc(OP2(=O)COCCO2)cc1` (centres undefined), the inhibition was inactive: -19.1%.

Turning to `Cc1cc(-c2cccc3ccccc23)c(C)cn1.O=[N+]([O-])c1cc([N+](=O)[O-])c(O)c([N+](=O)[O-])c1`, the inhibition was inactive: -23%.

With `O=[N+]([O-])c1cc([N+](=O)[O-])c(NCC2CCS(=O)(=O)C2)c([N+](=O)[O-])c1` (centres undefined), the inhibition is inactive: -19.9%.

As to `Cc1c(C(c2ccc3c(c2)OCO3)c2c(C)n(C)n(-c3ccccc3)c2=O)c(=O)n(-c2ccccc2)n1C.O=[N+]([O-])c1cc([N+](=O)[O-])c(O)c([N+](=O)[O-])c1`, the inhibition was inactive: -1.71%.

Take `CP(=O)(Nc1ccc(SC(F)(F)F)cc1)Oc1ccc(F)cc1` (centres undefined): the inhibition is inactive: -3.48%.

As to `CCOP(C)(=S)SCC(=O)NC(C)(CC)C(=O)O` (centres undefined), the inhibition was inactive: -2.11%.

As to `CP(=O)(Nc1ccc2c(c1)OCCO2)Oc1ccccc1` (centres undefined), the inhibition was inactive: 6.32%.

For the compound `Cc1ccccc1NP(C)(=O)Nc1ccccc1C`, the inhibition is inactive: 1.78%.

Turning to `O=[N+]([O-])c1cc([N+](=O)[O-])c(C(F)(F)F)c([N+](=O)[O-])c1O`, the inhibition was inactive: -16.8%.

Turning to `O=[N+]([O-])c1cc([N+](=O)[O-])c(Nc2ccc(Cl)cc2)c([N+](=O)[O-])c1`, the inhibition is inactive: -35%.

For `CP(=O)(Nc1ccccc1F)Oc1ccccc1` (centres undefined), the inhibition was inactive: -3.24%.

As to `CC(C)c1ccc(OP(C)(=O)Nc2ccc(SC(F)(F)F)cc2)cc1` (centres undefined), the inhibition is inactive: 2.65%.

`O=C(OC1CN2CCC1CC2)c1ccc([N+](=O)[O-])cc1` (centres undefined): the inhibition was inactive: -46.9%.

As to `O=C(OCCN1CCN(CCOCc2ccccc2)CC1)C(O)(c1ccccc1)c1ccccc1`, the inhibition is inactive: -3.21%.

Turning to `COc1ccc2c(c1O)-c1c(O)c(OC)cc3c1[C@H](C2)[N+](C)(C)CC3.O=[N+]([O-])c1cc([N+](=O)[O-])c([O-])c([N+](=O)[O-])c1[O-]`, the inhibition was inactive: -14.3%.

Turning to `CCN(CC)CCCNc1ccccc1[N+](=O)[O-].O=[N+]([O-])c1cc([N+](=O)[O-])c(O)c([N+](=O)[O-])c1`, the inhibition was inactive: -38.9%.

Consider `CCOC(=O)c1ccc(NP(C)(=O)Oc2ccc(F)cc2)cc1` (centres undefined), for which the inhibition was inactive: -0.142%.

`COc1ccc(OP(C)(=O)Nc2ccc(SC(F)(F)F)cc2)cc1` (centres undefined): the inhibition is inactive: -3.81%.

As for `Cc1c([N+](=O)[O-])cc([N+](=O)[O-])c(Br)c1[N+](=O)[O-]`, the inhibition is inactive: -19.4%.
